Test results published in ChEMBL document CHEMBL4342468, “Evolution of a 4-Benzyloxy-benzylamino Chemotype to Provide Efficacious, Potent, and Isoform Selective PPARα Agonists as Leads for Retinal Disorders” (J Med Chem, 2020).

Tests used:
[1] = molecular target: T1, Peroxisome proliferator-activated receptor alpha (Homo sapiens) (UniProt Q07869); experiment: Binding affinity to His-tagged PPARalpha LBD (unknown origin) expressed in Escherichia coli Rosetta (DE3) assessed as change in Gibbs free energy at 25 degree C by isothermal titration calorimetry
T1 sequence (whole entry): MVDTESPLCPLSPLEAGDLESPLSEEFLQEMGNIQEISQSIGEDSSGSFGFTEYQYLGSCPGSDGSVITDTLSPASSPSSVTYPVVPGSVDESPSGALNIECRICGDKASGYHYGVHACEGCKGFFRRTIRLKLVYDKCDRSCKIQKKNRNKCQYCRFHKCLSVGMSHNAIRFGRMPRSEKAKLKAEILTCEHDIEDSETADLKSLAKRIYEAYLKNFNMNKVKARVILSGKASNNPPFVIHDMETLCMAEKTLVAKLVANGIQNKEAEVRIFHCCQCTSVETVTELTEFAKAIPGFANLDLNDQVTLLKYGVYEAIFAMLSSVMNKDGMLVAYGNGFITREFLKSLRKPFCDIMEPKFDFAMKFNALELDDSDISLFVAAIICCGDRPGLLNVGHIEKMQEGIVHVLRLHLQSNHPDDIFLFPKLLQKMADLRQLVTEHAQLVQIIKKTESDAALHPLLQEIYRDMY

[2] = molecular target: T2, Peroxisome proliferator-activated receptor alpha (Homo sapiens, UniProt Q07869); experiment: Binding affinity to His-tagged PPARalpha LBD (unknown origin) expressed in Escherichia coli Rosetta (DE3) at 25 degree C by isothermal titration calorimetry
T2 sequence (Q07869 whole entry): T1 sequence (whole entry)

[3] = molecular target: T1, Peroxisome proliferator-activated receptor alpha (Homo sapiens); experiment: Agonist activity at human PPARalpha expressed in nonhuman mammalian cells assessed as maximal increase in receptor transcriptional activity incubated for 22 to 24 hrs by luciferase reporter gene assay relative to GW590735; type: cell-based
[4] = molecular target: T1, Peroxisome proliferator-activated receptor alpha (Homo sapiens); experiment: Binding affinity to His-tagged PPARalpha LBD (unknown origin) expressed in Escherichia coli Rosetta (DE3) assessed as change in enthalpy at 25 degree C by isothermal titration calorimetry

## Cc1nc(-c2ccc(C(F)(F)F)cc2)sc1C(=O)NCc1ccc(OC(C)(C)C(=O)O)cc1 [GW590735]
[1]
  deltaG: -9.24 kcal/mol
[2]
  Kd: 0.17 µM

## COc1ccc(COc2ccc(CNc3cccc(C(=O)O)c3)cc2)cc1
[3]
  fold change (FC): 1.4
[4]
  deltaH: -12.2 kcal/mol
[1]
  deltaG: -6.5 kcal/mol
[2]
  Kd: 16.9 µM
